High-throughput results (PubChem)
In the library only some 16% were active in any assay of this set; here they are far more common.
uPA surface inh: cell surface uPA generation inhibition | Potency, µM (top dose mostly 38.3 µM), without a hit: top-dose activity change, negative = inhibition, most hits filed as inhibitors | 330,000 compounds, 0.31% hits | cell surface uPA generation assay, qHTS | AID 540303; active means well fitted inhibition curve with a large enough effect; inconclusive means small, poorly fitted or top-dose-only effect; inactive means no such curve, though single readings can be large or run the other way; tested in mouse RAW 264.7 cells; further: potency means the concentration at half of the fitted maximal effect; on the % scale 0 is the no-effect control and ±100 the full control effect; nearly all actives have a fitted effect of over 55% in size
TDP1 inh: inhibitors of human tyrosyl-DNA phosphodiesterase TDP1. Q9NUW8. recombinant TDP1, AlphaScreen DNA substrate cleavage. Potency, µM (series often up to 130 µM), without a hit: at the top dose activity change, negative = inhibition, hits mostly inhibitors. 350,000 compounds, 0.28% hits; further: potency means the concentration at half of the fitted maximal effect; on the % scale 0 is the no-effect control and ±100 the full control effect; nearly all actives have a fitted effect of over 40% in size
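Here, a 5' biotin and 3' phosphotyrosine-FITC DNA oligonucleotide reports Tdp1 activity: intact substrate bridges AlphaScreen beads, while cleavage leaves a 3' phosphate and drops signal. All incubations at room temperature.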
miR-21 reporter: miR-21 reporter, rising signal | AID 2288 | HeLa miR-21 FLuc reporter, luciferase, 48 h | 340,000 tested, under 10 active | Potency, µM (doses to about 38.3 µM), for inactives: at the top dose reporter change, positive = more light; active = well fitted rising curve with a large enough effect; inconclusive = small, poorly fitted or top-dose-only effect; inactive = no such curve, though single readings can be large or run the other way;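 note: % of control where 0% means no effect; miR-21 action dims this reporter so a rising signal means less miR-21 action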
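HeLa cells endogenously expressing miR-21, stably carrying CMV-driven firefly luciferase with a downstream miR-21 binding site, 2000 cells/well. Titrations up to approximately 40 uM, 48 hours; luciferase luminescence read.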
DT40 TDP1 CPT: growth inhibition of DT40 Tdp1-/-;hTDP1 cells with camptothecin (screen for TDP1 inhibitors); chicken DT40 Tdp1-/-;hTDP1 cells + 20 nM CPT, ATP luminescence, 48 h; Potency, µM (highest dose often 46.2 µM), inactives show at the top dose activity change, negative = growth inhibition, most hits filed as inhibitors; 420,000 compounds, 12% hits; AID 686979; further: potency means the concentration at half of the fitted maximal effect; on the % scale 0 is the no-effect control and ±100 the full control effect; nearly all actives have a fitted effect of over 55% in size
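Chicken DT40 Tdp1-/- cells complemented with human TDP1, 400 cells/well, exposed to compounds plus 20 nM camptothecin for at least 48 h at 37 C; viability read as ATP content by CellTiter-Glo luminescence.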
TDP1 cell noCPT: qHTS for Inhibitors of human tyrosyl-DNA phosphodiesterase 1 (TDP1): qHTS in cells in absence of CPT; DT40 Tdp1-/- hTDP1 cells, no CPT, ATP luminescence, 48 h; 420,000 compounds, 15% hits; Potency, µM (top dose mostly 46.2 µM), for the others: at the highest dose activity change, negative = growth inhibition, hits mostly inhibitors; further: potency means the concentration at half of the fitted maximal effect; on the % scale 0 is the no-effect control and ±100 the full control effect; nearly all actives have a fitted effect of over 55% in size
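Chicken DT40 Tdp1-/- cells stably complemented with human TDP1 were seeded at 400 cells/well with DMSO in place of 20 nM camptothecin. After compound pinning, cells grew at least 48 hr at 37 °C; viability read by CellTiter-Glo luminescence.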
Active calls of the source: *; ? = inconclusive; . = not tested or not shown. Unless noted, the call rests on the fitted dose curve; in most records, active means well fitted curve in the direction sought with a large enough effect; inconclusive means small, poorly fitted or top-dose-only effect, or another doubt; inactive means no such curve, though single readings can be large; an effect the other way counts as inactive or inconclusive.

| SMILES | uPA surface inh | TDP1 inh | miR-21 reporter | DT40 TDP1 CPT | TDP1 cell noCPT |
| --- | --- | --- | --- | --- | --- |
| COc1ccc(N2C3=C(C(=O)CC(C)(C)C3)C(c3ccccc3OC)C3=C2CC(C)(C)CC3=O)cc1 | -4% | 4% | 14% | ? | 16µM* |
| Cc1ccc(N2C3=C(C(=O)CC(C)(C)C3)C(c3cn(C)nc3C)C3=C2CC(C)(C)CC3=O)cc1 | -11% | . | . | 15µM* | 13µM* |
| COc1ccccc1C1C2=C(CC(C)(C)CC2=O)N(CC(=O)O)C2=C1C(=O)CC(C)(C)C2 | -8% | . | 2% | 2% | 11% |
| COc1ccc(N2C3=C(CC4=C2CC(C)(C)CC4=O)C(=O)CC(C)(C)C3)cc1 | ? | 3% | ? | 4.6µM* | 3.3µM* |
| CCc1ccc(/C=N/n2c(C3CCCCC3)n[nH]c2=S)cc1 | 0% | . | 3% | ? | ? |
| CC1CN(C)C(C)c2c1oc1ccc(N)cc21 (stereo unspecified) | 5% | 0% | 2% | ? | 10µM* |
| O=C1NC(=S)S/C1=C\C=C\c1ccc([N+](=O)[O-])o1 | 53% | . | ? | 1.6µM* | 2.3µM* |
| O=C(Cc1ccc(S(=O)(=O)N2CCCCC2)s1)Nc1ccc(F)c(F)c1 | -1% | -3% | 21% | 16µM* | 23µM* |
| NS(=O)(=O)c1cccc(NC(=O)COC(=O)Cc2ccc(S(=O)(=O)N3CCCCC3)s2)c1 | 9% | -2% | 0% | -1% | 25% |
| O=C(Cc1ccc(S(=O)(=O)N2CCCC2)s1)Nc1cccc([N+](=O)[O-])c1 | -3% | 1% | . | ? | 16µM* |
| O=C(COC(=O)Cc1ccc(S(=O)(=O)N2CCCCC2)s1)Nc1ccc2c(c1)OCO2 | 4% | 4% | 8% | 5% | 3% |
| CC(C)(C)n1cnc2cc(NCc3ccccc3Cl)ccc21 | . | 10% | -24% | ? | 15µM* |
| C[C@@H]1CN([C@H](C)CO)C(=O)c2c(c3ccccc3n2C)-c2ccccc2CO[C@@H]1CN(C)S(=O)(=O)c1cccs1 | . | . | . | ? | 21µM* |
| C[C@H](CO)N1C[C@H](C)[C@H](CN(C)S(=O)(=O)c2cccc(F)c2)OCc2ccccc2-c2c(n(C)c3ccccc23)C1=O | . | . | . | 10µM* | 16µM* |
| Cc1ccc(CNC(=O)CCCN2C(=O)CCn3nc(-c4cccn4C)cc32)cc1 | . | 3% | -2% | -19% | ? |
| Cc1cc(C)c2cc(CN(CCN3CCCC3)C(=O)Nc3ccc(F)cc3)c(=O)[nH]c2c1 | -10% | -10% | -15% | 15µM* | 21µM* |
| Cc1ccc(C)c2[nH]c(=O)c(CN(CCN3CCCC3)C(=O)Nc3cccc(Cl)c3)cc12 | -6% | 1% | 15% | 23µM* | 18µM* |
| O=C(/C=C/c1ccco1)N(Cc1ccccc1)C1CCS(=O)(=O)C1 (stereo unspecified) | 0% | . | 0% | -9% | -24% |
| CCN(C(=O)CSc1nc2cc(C(=O)OC)ccc2c(=O)n1Cc1ccco1)c1cccc(C)c1 | -3% | -7% | 2% | 21µM* | ? |
| CCc1ccc(NC(=O)CSc2nc3cc(C(=O)OC)ccc3c(=O)n2Cc2ccco2)cc1 | 0% | -6% | -2% | 16µM* | 10µM* |
| CCN(C(=O)CSc1nc2cc(C(=O)O)ccc2c(=O)n1Cc1ccccc1)c1ccccc1 | 1% | . | 1% | -9% | -2% |
| CCSc1nnnn1-c1cccc(C(=O)O)c1 | . | 1% | 0% | -1% | -4% |
| CC1=CC(=O)C=CC1=Nc1ccc(N(C)C)cc1 | . | . | . | 1µM* | 0.92µM* |
| CN(C)c1nc(-c2ccccn2)nnc1-c1ccccc1 | -11% | 10% | 18% | 10µM* | 15µM* |
| CCN(CC)c1nc(-c2ccccn2)nc(-c2ccccc2)c1C#N | -14% | 6% | ? | 18µM* | 3.3µM* |
| CN(C)c1nc(-c2ccccc2)nc(-c2ccc(Cl)cc2)c1C#N | -4% | 2% | 4% | -2% | -17% |
| CCc1ccc(N=C2NC(=O)/C(=C/c3cc(OC)c(O)c(OC)c3)S2)cc1 | -11% | . | -10% | ? | 26µM* |
| COc1cc(/C=C2\SC(=Nc3ccccc3OC)NC2=O)ccc1O | -13% | 6% | 14% | ? | ? |
| COc1cc(/C=C2\SC(=Nc3ccccc3)NC2=O)cc(Cl)c1O | -7% | . | -30% | ? | ? |
| COc1ccc(/C=C2\SC(=Nc3ccccc3OC)NC2=O)cc1 | -26% | 7% | 7% | 23µM* | ? |
| COc1cc(/C=C2\SC(=Nc3ccc(Cl)c(C(=O)O)c3)NC2=O)c(Br)c(Br)c1O | -1% | 8.9µM* | -2% | -1% | 3% |
| O=C1NC(=Nc2ccccc2)S/C1=C\c1ccccc1 | -14% | . | -16% | ? | ? |
| COC(=O)/C=C1\SC(=Nc2ccc(Cl)c(Cl)c2)NC1=O | 1% | 7% | -3% | -4% | -7% |
| COc1cc(/C=C2/SC(=Nc3ccc(O)cc3)NC2=O)ccc1O | -15% | 6% | 3% | 1µM* | 0.65µM* |
| CN1C(=O)c2cccc3c(N(C)C)ccc(c23)C1=O | 6% | . | -10% | -19% | ? |
| S=C(Nc1ccc(Br)cc1Cl)Nn1cnnc1 | 1% | 3% | -2% | -12% | 3% |
| Cc1noc(C)c1S(=O)(=O)N1CCN(C(c2ccccc2)c2ccc(Cl)cc2)CC1 (stereo unspecified) | 7% | 2% | 0% | ? | 13µM* |
| Cc1noc(C)c1S(=O)(=O)N1CCC(C(=O)c2ccccc2)CC1 | -1% | 3% | -1% | 2% | -6% |
| O=C(c1cccs1)N1CCN(C(=O)C2CCCO2)CC1 (stereo unspecified) | . | 0% | -4% | 6% | 0% |
| Cc1ccc(N(Cc2cc(=O)[nH]c3ccccc23)C(=O)CCl)c(C)c1 | -4% | . | ? | 15µM* | 15µM* |

Rewritten field by field: 4 of the compounds above.
COc1cc(/C=C2\SC(=Nc3ccc(Cl)c(C(=O)O)c3)NC2=O)c(Br)c(Br)c1O
- uPA surface inh = -1%
- TDP1 inh = 8.9µM*
- miR-21 reporter = -2%
- DT40 TDP1 CPT = -1%
- TDP1 cell noCPT = 3%

O=C1NC(=Nc2ccccc2)S/C1=C\c1ccccc1
- uPA surface inh = -14%
- TDP1 inh = .
- miR-21 reporter = -16%
- DT40 TDP1 CPT = ?
- TDP1 cell noCPT = ?

COC(=O)/C=C1\SC(=Nc2ccc(Cl)c(Cl)c2)NC1=O
- uPA surface inh = 1%
- TDP1 inh = 7%
- miR-21 reporter = -3%
- DT40 TDP1 CPT = -4%
- TDP1 cell noCPT = -7%

COc1cc(/C=C2/SC(=Nc3ccc(O)cc3)NC2=O)ccc1O
- uPA surface inh = -15%
- TDP1 inh = 6%
- miR-21 reporter = 3%
- DT40 TDP1 CPT = 1µM*
- TDP1 cell noCPT = 0.65µM*

The list goes on:
| SMILES | uPA surface inh | TDP1 inh | miR-21 reporter | DT40 TDP1 CPT | TDP1 cell noCPT |
| --- | --- | --- | --- | --- | --- |
| COc1cccc(CN(C(=O)COc2ccccc2[N+](=O)[O-])C2CCS(=O)(=O)C2)c1 (stereo unspecified) | -4% | 0% | -2% | ? | ? |
| O=c1[nH]c2ccccc2nc1-c1c[nH]c2ccccc12 | -10% | . | -38% | -23% | 0% |
| ClC(Cl)c1nnc(-c2ccccc2)c(-c2c[nH]c3ccccc23)n1 | -9% | 3% | -8% | 3.7µM* | ? |
| COc1cc(OC)c(NC(=O)c2ccoc2C)cc1Cl | . | 7% | -2% | 15µM* | ? |
| Cc1ccc([N+](=O)[O-])cc1NC(=O)c1ccoc1C | 1% | 5% | -38% | ? | -24% |
| Cc1ccc(Cl)cc1NC(=O)c1cc2ccccc2cc1O | ? | 6% | -4% | 2.6µM* | 2.9µM* |
| COc1ccccc1NC(=O)c1cc2cc(Br)ccc2cc1O | 2% | 0% | ? | 6.5µM* | 3.7µM* |
| Cc1occc1C(=O)Nc1ccc([N+](=O)[O-])cc1Br | -4% | 1% | -9% | 1.3µM* | 29µM* |
